These results are taken from ChEMBL document CHEMBL1151069, “Analogs of an endothelin antagonist RES-701-1: substitutions of C-terminal amino acid” (Bioorg Med Chem Lett, 1996).

In the assay the target is T1, Endothelin receptor type B (Bos taurus, UniProt P28088).
T1 sequence (P28088 whole entry): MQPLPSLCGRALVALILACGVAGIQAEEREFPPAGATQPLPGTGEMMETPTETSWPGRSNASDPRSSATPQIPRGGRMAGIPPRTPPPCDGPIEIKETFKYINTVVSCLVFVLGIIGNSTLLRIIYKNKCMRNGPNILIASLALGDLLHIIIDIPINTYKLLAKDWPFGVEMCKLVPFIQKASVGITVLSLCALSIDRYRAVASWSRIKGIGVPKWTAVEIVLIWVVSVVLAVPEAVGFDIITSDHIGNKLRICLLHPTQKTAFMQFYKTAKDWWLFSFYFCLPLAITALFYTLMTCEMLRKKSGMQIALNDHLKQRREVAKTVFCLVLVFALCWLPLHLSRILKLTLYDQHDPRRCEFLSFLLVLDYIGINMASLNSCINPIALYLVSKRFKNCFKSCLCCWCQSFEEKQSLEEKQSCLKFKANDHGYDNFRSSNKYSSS
Description: Binding activity against Endothelin B receptor expressed from bovine cerebellum membrane preparation. The format is tissue-based.

Each structure is given as a SMILES string.

A word on the IC50: it is the midpoint of a concentration-inhibition curve. Regarding `C[C@@H]1NC(=O)[C@@H]([C@@H](C)O)NC(=O)CNC(=O)[C@@H](Cc2cnc[nH]2)NC(=O)[C@H](Cc2c[nH]c3ccccc23)NC(=O)[C@@H](CC(N)=O)NC(=O)CNC(=O)C[C@H](C(=O)N[C@@H](Cc2c[nH]c3ccccc23)C(=O)N[C@@H](Cc2ccccc2)C(=O)N[C@@H](Cc2ccccc2)C(=O)N[C@@H](CC(N)=O)C(=O)N[C@@H](Cc2ccc(O)cc2)C(=O)N[C@@H](Cc2ccc(O)cc2)C(=O)N[C@@H](Cc2c[nH]c3ccccc23)C(=O)O)NC(=O)[C@H]2CCCN2C1=O`, the IC50 is 7.3 nM. The figure for `C[C@@H]1NC(=O)[C@@H]([C@@H](C)O)NC(=O)CNC(=O)[C@@H](Cc2c[nH]cn2)NC(=O)[C@H](Cc2c[nH]c3ccccc23)NC(=O)[C@@H](CC(N)=O)NC(=O)CNC(=O)C[C@H](C(=O)N[C@@H](Cc2c[nH]c3ccccc23)C(=O)N[C@@H](Cc2ccccc2)C(=O)N[C@@H](Cc2ccccc2)C(=O)N[C@@H](CC(N)=O)C(=O)N[C@@H](Cc2ccc(O)cc2)C(=O)N[C@H](Cc2ccc(O)cc2)C(=O)N[C@@H](Cc2c[nH]c3ccccc23)C(=O)O)NC(=O)[C@H]2CCCN2C1=O` is more than 98 nM.
